Values of other authors in patent publication US20160038498A1, “METHODS FOR THE TREATMENT OF CANCER” (The Translational Genomics Research Institute, priority 2013, published 2016).

Conditions: single intravenous injection of 50-70 mg of BI-2536; cited from earlier work

**Q.** For `CC[C@@H]1C(=O)N(C)c2cnc(Nc3ccc(C(=O)NC4CCN(C)CC4)cc3OC)nc2N1C1CCCC1` [BI-2536], which concentrations achieved clinically is on record?
**A.** 31.2 to 55.2 µM
